Reference: ChEMBL document CHEMBL5584345, “Discovery of Novel 2-Aminopyridine-Based and 2-Aminopyrimidine-Based Derivatives as Potent CDK/HDAC Dual Inhibitors for the Treatment of Refractory Solid Tumors and Hematological Malignancies” (J Med Chem, 2024)
Active and inactive are the calls of the source. The rule behind the calls is not given here.

Protein sequences, listed by entry. Tags and fused reporters are not part of them. Lines headed by an entry give the natural chain unless they say otherwise; changes in a name come on top.
UniProt P36888, whole entry: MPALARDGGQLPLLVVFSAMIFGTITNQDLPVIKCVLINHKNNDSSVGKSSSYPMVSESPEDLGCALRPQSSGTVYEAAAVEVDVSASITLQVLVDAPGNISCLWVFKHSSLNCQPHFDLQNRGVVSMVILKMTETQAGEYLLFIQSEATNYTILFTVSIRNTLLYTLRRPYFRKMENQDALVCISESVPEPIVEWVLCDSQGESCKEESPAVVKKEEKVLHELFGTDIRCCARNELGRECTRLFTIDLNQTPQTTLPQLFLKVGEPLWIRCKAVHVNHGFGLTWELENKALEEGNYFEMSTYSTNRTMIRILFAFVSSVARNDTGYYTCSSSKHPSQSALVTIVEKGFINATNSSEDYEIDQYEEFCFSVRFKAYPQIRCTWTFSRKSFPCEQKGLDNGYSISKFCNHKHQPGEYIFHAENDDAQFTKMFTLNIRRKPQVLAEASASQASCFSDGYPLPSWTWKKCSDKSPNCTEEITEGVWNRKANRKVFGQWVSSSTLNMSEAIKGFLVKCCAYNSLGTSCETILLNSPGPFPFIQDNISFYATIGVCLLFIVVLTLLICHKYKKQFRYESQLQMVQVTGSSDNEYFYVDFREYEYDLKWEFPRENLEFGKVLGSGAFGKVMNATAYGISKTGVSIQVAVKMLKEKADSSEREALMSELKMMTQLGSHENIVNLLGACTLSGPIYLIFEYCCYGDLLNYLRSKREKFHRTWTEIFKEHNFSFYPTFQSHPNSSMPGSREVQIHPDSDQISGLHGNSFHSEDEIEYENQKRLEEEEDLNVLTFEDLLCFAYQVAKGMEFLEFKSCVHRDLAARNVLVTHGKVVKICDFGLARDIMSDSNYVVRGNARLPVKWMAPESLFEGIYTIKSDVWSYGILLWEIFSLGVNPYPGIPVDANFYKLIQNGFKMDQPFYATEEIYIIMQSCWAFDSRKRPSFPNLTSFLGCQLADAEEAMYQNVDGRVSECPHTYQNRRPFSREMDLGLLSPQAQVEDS
UniProt P23443: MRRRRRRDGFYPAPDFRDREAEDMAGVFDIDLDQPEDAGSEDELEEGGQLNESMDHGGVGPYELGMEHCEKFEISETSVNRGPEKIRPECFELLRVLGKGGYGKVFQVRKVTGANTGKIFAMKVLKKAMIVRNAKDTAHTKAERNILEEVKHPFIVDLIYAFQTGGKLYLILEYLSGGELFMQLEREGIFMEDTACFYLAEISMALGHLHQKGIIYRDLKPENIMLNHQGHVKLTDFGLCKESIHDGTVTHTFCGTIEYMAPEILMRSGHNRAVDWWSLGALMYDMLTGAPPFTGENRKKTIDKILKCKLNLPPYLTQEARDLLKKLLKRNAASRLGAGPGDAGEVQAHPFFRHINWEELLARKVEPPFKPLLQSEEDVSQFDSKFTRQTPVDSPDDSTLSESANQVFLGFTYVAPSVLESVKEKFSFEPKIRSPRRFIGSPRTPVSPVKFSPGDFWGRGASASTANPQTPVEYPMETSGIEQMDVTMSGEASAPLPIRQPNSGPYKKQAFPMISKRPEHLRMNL
UniProt Q06187: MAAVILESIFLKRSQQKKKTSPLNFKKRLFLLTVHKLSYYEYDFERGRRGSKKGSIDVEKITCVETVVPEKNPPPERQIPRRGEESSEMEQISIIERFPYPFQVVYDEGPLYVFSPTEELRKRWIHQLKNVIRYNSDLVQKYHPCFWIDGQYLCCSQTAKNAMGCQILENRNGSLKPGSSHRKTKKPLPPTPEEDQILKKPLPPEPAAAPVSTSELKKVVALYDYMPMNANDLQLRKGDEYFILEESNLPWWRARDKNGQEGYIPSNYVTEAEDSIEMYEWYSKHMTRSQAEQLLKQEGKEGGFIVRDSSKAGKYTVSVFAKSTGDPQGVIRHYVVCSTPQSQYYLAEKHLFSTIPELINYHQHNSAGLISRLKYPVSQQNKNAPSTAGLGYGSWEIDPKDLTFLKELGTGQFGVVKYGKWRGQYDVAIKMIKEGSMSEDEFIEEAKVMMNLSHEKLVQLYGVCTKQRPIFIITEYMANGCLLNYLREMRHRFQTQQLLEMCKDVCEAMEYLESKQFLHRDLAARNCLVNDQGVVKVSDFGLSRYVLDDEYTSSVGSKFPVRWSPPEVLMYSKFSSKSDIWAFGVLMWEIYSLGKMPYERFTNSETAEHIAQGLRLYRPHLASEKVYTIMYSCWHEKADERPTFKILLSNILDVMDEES
UniProt Q9NWZ3, whole entry: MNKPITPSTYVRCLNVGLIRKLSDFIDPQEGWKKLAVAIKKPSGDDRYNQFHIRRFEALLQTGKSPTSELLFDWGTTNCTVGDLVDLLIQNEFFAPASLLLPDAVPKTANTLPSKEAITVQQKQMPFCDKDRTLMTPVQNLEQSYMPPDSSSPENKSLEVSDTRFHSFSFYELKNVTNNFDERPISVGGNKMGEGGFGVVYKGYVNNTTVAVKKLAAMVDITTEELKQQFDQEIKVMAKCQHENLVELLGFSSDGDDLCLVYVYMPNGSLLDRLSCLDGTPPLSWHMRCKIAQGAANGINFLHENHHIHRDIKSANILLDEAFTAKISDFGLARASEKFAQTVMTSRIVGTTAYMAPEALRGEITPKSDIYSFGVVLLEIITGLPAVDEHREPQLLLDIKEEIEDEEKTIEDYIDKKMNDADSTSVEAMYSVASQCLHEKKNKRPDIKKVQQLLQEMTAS
UniProt Q9UQL6: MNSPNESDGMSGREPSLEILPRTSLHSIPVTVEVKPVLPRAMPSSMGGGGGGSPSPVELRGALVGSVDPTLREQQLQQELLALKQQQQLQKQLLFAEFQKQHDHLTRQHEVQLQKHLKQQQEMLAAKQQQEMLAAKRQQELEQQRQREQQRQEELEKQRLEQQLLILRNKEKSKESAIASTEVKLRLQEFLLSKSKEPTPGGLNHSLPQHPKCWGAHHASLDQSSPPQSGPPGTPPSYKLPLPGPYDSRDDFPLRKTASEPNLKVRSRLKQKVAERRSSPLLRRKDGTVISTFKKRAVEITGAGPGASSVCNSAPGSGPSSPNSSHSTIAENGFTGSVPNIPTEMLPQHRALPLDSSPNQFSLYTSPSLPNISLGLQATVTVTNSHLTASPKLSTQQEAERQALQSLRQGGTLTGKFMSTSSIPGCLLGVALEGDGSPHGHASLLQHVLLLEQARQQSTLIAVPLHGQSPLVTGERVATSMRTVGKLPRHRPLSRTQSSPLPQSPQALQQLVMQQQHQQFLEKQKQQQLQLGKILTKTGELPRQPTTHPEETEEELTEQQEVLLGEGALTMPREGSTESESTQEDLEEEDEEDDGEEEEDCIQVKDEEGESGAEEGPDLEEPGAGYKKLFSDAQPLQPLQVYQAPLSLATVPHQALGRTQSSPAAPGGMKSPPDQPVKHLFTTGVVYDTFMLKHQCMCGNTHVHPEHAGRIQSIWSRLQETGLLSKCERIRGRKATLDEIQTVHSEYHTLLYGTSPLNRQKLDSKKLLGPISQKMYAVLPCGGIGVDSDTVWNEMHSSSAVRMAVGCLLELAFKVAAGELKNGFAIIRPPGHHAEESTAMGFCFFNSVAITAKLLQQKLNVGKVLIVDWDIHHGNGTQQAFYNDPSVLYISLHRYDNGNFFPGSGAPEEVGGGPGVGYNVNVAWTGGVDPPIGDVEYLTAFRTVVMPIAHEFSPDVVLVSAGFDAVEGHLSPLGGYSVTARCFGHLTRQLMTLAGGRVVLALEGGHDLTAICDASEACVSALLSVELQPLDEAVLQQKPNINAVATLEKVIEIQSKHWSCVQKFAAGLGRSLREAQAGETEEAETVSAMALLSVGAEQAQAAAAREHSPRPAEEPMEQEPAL
UniProt Q00536: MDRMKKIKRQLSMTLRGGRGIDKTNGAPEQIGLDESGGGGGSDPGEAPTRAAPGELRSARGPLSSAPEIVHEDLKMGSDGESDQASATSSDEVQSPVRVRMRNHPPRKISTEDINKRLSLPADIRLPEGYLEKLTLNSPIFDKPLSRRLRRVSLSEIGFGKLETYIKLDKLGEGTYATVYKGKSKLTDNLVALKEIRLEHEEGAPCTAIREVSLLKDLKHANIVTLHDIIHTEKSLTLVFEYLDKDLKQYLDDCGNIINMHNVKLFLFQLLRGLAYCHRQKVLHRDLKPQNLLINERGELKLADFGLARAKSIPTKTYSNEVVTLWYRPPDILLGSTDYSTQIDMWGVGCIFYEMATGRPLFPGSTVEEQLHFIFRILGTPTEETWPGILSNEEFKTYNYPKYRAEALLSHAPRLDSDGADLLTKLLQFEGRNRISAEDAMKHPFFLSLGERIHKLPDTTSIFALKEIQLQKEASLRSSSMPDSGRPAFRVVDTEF
UniProt Q00537: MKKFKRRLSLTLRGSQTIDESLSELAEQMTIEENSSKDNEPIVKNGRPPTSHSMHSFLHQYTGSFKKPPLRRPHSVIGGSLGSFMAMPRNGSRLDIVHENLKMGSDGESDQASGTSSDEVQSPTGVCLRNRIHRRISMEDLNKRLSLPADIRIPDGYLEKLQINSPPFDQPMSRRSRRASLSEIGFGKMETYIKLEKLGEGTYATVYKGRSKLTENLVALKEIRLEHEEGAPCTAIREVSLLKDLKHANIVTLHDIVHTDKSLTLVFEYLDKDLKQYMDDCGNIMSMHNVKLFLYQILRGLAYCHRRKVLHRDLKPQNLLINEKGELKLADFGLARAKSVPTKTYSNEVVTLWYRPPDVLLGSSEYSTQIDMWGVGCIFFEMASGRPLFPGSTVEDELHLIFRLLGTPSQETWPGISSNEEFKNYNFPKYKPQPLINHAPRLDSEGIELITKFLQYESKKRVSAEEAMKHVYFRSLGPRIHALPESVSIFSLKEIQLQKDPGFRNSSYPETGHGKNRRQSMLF
UniProt Q07002: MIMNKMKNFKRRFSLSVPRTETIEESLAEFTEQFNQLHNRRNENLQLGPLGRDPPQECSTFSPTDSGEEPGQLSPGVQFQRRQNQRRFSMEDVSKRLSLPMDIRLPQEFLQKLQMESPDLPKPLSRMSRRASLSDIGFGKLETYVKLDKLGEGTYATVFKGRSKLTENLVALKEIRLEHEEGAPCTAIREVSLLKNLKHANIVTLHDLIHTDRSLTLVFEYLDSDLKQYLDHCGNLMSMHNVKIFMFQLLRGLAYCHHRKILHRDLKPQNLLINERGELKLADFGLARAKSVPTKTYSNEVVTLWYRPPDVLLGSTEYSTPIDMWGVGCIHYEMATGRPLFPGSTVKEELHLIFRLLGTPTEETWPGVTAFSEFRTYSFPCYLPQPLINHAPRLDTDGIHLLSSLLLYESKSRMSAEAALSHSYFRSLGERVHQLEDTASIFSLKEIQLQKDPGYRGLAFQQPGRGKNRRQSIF
UniProt P11802: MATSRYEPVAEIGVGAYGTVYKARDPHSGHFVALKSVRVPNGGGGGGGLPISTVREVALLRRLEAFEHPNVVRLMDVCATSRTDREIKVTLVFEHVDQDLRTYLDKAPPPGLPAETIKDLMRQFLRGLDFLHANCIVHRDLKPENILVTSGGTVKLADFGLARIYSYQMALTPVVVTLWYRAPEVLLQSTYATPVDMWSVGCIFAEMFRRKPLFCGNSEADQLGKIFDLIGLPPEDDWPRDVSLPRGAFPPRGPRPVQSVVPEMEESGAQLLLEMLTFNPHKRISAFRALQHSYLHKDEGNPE
UniProt Q92769, whole entry: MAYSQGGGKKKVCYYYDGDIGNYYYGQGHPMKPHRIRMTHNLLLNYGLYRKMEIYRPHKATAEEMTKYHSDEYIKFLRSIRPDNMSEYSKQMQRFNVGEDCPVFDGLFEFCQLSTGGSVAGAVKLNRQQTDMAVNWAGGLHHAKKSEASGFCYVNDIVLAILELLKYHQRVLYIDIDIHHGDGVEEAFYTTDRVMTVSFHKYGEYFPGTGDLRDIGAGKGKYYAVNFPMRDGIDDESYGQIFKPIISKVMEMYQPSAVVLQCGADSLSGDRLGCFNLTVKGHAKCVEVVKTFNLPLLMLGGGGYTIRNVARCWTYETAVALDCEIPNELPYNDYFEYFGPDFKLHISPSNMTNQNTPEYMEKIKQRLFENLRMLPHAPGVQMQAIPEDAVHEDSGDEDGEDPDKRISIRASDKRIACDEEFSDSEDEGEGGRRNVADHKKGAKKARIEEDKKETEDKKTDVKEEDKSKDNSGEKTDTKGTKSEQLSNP
UniProt O94921: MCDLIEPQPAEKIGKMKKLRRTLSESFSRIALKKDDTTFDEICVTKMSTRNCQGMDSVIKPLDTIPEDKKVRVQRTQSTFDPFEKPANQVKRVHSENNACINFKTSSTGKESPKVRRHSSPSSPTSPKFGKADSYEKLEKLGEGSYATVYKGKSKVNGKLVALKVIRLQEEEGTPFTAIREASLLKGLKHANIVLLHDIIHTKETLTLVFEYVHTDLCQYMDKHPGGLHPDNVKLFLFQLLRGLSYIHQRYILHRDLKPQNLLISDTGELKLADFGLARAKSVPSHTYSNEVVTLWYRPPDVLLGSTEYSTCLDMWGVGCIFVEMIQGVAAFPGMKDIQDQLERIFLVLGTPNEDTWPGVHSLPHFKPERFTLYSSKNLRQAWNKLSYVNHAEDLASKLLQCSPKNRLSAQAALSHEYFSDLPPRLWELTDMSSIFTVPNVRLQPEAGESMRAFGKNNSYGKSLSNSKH

Key:
MV4-11 = experiment: Synergistic anticancer activity against human MV4-11 cells incubated for 72 hrs in presence of SAHA by CCK-8 assay; assay type: functional, cell-based
[1] = target: Receptor-type tyrosine-protein kinase FLT3 (Homo sapiens, UniProt P36888); experiment: Inhibition of FLT3 (unknown origin) at 10 uM relative to control
[2] = target: T1, Serine/threonine-protein kinase 17B (Homo sapiens) (UniProt O94768); experiment: Inhibition of DRAK2 (unknown origin) at 10 uM relative to control
T1 sequence (whole entry): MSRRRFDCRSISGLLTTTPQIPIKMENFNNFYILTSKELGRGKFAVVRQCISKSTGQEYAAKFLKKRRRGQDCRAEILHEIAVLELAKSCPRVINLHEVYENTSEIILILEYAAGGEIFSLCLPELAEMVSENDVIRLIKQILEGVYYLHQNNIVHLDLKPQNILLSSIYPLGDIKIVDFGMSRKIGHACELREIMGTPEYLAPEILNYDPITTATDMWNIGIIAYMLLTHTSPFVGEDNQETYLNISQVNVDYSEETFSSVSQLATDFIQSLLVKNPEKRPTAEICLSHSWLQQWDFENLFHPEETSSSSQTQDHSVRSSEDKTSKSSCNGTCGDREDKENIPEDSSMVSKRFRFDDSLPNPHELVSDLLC

[3] = target: Ribosomal protein S6 kinase beta-1 (Homo sapiens, UniProt P23443); experiment: Inhibition of P70S6K (unknown origin) at 10 uM relative to control
[4] = target: Epidermal growth factor receptor (Homo sapiens, UniProt P00533); experiment: Inhibition of EGFR (unknown origin) at 10 uM relative to control
[5] = target: Tyrosine-protein kinase BTK (Homo sapiens, UniProt Q06187); experiment: Inhibition of BTK (unknown origin) at 10 uM relative to control
[6] = target: Interleukin-1 receptor-associated kinase 4 (Homo sapiens, UniProt Q9NWZ3); experiment: Inhibition of IRAK4 (unknown origin) at 10 uM relative to control
[7] = target: T2, Tyrosine-protein kinase JAK3 (Homo sapiens) (UniProt P52333); experiment: Inhibition of JAK3 (unknown origin) at 10 uM relative to control
T2 sequence (whole entry): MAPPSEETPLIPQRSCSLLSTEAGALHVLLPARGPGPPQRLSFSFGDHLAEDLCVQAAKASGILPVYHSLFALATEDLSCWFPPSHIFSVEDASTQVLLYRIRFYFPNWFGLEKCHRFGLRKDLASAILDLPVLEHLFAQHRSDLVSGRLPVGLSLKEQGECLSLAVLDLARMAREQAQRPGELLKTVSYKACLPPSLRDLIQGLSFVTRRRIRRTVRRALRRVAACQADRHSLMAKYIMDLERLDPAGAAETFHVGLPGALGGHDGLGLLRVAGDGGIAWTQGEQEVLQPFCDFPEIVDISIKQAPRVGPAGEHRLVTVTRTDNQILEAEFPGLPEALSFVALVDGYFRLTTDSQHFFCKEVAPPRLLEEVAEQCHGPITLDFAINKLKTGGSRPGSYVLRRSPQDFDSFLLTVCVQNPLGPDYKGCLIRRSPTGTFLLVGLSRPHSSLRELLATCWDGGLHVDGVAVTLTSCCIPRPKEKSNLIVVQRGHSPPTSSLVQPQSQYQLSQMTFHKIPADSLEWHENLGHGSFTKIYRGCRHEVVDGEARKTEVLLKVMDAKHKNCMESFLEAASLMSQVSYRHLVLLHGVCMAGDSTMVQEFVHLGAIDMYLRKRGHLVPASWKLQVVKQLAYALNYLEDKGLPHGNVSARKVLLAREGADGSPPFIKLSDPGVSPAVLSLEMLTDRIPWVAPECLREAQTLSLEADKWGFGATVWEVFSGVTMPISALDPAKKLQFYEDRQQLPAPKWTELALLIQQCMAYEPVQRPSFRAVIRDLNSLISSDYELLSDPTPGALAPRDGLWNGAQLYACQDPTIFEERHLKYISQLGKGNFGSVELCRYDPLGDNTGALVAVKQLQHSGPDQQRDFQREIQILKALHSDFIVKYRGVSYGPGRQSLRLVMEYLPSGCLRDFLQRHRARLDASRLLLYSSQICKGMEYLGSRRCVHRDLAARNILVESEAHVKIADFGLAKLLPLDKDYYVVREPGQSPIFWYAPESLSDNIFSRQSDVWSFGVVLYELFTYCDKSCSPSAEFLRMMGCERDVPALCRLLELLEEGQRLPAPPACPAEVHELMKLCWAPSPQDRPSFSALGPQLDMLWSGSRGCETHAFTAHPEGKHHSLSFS

[8] = target: T3, Aurora kinase A (Homo sapiens) (UniProt O14965); experiment: Inhibition of AurorA (unknown origin) at 10 uM relative to control
T3 sequence (whole entry): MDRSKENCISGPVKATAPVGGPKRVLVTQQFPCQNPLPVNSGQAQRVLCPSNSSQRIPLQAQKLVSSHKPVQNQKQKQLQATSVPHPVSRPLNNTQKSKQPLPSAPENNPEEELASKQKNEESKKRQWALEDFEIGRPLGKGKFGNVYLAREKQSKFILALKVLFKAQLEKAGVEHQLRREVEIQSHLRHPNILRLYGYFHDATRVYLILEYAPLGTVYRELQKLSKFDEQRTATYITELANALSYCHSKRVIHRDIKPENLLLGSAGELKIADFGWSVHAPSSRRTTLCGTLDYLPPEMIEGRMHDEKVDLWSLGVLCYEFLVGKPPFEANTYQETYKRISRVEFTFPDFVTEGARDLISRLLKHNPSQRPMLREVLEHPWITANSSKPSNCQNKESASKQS

[9] = target: Histone deacetylase 5 (Homo sapiens) (UniProt Q9UQL6); experiment: Inhibition of HDAC5 (unknown origin) at 10 uM
[10] = target: Cyclin-dependent kinase 16 (Homo sapiens) (UniProt Q00536); experiment: Inhibition of CDK16 (unknown origin) at 10 uM
[11] = target: T4, Histone deacetylase 8 (Homo sapiens) (UniProt Q9BY41); experiment: Inhibition of HDAC8 (unknown origin) at 10 uM
T4 sequence (whole entry): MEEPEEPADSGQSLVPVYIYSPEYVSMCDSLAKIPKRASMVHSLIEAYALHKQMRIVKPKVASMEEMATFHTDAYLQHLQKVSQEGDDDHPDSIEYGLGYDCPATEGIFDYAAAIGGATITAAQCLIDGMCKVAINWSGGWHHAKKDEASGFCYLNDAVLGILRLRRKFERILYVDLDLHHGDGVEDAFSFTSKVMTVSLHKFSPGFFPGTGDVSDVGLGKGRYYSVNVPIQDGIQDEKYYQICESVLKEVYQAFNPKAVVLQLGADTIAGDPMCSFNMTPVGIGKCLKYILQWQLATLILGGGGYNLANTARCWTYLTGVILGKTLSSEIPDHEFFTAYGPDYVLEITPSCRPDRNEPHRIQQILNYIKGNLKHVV

[12] = target: Cyclin-dependent kinase 17 (Homo sapiens) (UniProt Q00537); experiment: Inhibition of CDK17 (unknown origin) at 10 uM
Histone deacetylase 4 = Histone deacetylase 4 (Homo sapiens, UniProt P56524); experiment: Inhibition of HDAC4 (unknown origin) at 10 uM
[13] = target: Cyclin-dependent kinase 18 (Homo sapiens) (UniProt Q07002); experiment: Inhibition of CDK18 (unknown origin) at 10 uM
[14] = target: T5, Histone deacetylase 7 (Homo sapiens) (UniProt Q8WUI4); experiment: Inhibition of HDAC7 (unknown origin) at 10 uM
T5 sequence (whole entry): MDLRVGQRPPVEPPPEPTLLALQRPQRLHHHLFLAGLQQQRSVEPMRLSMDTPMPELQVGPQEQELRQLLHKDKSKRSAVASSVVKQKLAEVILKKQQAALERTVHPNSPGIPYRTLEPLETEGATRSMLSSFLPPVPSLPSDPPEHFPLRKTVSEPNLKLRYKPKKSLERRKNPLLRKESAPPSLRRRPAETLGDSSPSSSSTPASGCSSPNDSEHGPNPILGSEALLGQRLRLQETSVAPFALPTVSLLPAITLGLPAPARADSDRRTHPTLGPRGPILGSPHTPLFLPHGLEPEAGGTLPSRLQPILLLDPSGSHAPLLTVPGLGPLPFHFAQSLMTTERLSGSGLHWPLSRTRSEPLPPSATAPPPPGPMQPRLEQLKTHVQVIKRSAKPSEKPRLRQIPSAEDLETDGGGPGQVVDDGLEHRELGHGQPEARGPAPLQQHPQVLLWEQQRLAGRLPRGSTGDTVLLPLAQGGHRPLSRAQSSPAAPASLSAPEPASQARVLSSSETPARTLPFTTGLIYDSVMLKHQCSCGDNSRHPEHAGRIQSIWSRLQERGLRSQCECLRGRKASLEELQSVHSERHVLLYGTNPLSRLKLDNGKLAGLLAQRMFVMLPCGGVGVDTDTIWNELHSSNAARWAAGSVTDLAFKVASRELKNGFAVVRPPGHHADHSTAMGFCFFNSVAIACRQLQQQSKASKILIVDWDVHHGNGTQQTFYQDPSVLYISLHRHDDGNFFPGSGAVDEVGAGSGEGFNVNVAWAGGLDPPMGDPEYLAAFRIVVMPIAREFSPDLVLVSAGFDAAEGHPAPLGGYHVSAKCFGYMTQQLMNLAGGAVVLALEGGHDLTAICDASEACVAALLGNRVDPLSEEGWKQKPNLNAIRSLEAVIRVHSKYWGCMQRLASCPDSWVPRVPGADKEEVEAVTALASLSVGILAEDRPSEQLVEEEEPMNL

[15] = target: Cyclin-dependent kinase 4 (Homo sapiens) (UniProt P11802); experiment: Inhibition of CDK4 (unknown origin) at 10 uM
[16] = target: Histone deacetylase 2 (Homo sapiens) (UniProt Q92769); experiment: Inhibition of HDAC2 (unknown origin) at 10 uM
[17] = target: Cyclin-dependent kinase 14 (Homo sapiens) (UniProt O94921); experiment: Inhibition of CDK14 (unknown origin) at 10 uM
[18] = target: Cyclin-dependent kinase 6 (Homo sapiens) (UniProt Q00534); experiment: Inhibition of CDK6 (unknown origin) at 10 uM

inhibition [1] [%]	inhibition [2] [%]	inhibition [3] [%]	inhibition [4] [%]	inhibition [5] [%]	inhibition [6] [%]	inhibition [7] [%]	inhibition [8] [%]	inhibition [9]	inhibition [10]	inhibition [11]	inhibition [12]	inhibition (Histone deacetylase 4)	inhibition [13]	inhibition [14]	inhibition [15]	inhibition [16]	inhibition [17]	inhibition [18]	Structure (SMILES)	Activity (MV4-11)
–	–	–	–	–	–	–	–	–	–	–	–	–	–	–	–	–	–	–	COC[C@@H](C)N[C@H]1CC[C@H](Nc2cc(-c3cccc(NCC4(C#N)CCOCC4)n3)c(Cl)cn2)CC1	Active
98.1	13.2	48.4	40.1	56.7	39.2	82.3	96.7	–	–	–	–	–	–	–	–	–	–	–	CCCNNC(=O)c1ccc(Cn2cc(Nc3ncc(Cl)c(-c4cnc5ccccn45)n3)cn2)cc1	–
49.8	9.96	37.2	4.44	-3.19	3.11	3.35	23	inactive	inactive	inactive	inactive	inactive	inactive	inactive	inactive	inactive	inactive	inactive	N#CC1(CNc2cccc(-c3cc(Nc4cnn(Cc5ccc(C(=O)Nc6ccccc6N)cc5)c4)ncc3Cl)n2)CCOCC1	–
